From PubChem BioAssay AID463082 (The Scripps Research Institute Molecular Screening Center, 2010)
The list shows a part of the results, in another mix than the full data. The source made the active and inactive calls.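 How the source made its calls: active means inhibition above the mean inhibition across the screen plus 3 SD (cut at about 25% in these data); inactive means the rest.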

Sequences of proteins named here, by UniProt entry; tags and fusion partners are left off. A change or cut given only in a name is not applied to a line headed by its entry.
UniProt Q13093: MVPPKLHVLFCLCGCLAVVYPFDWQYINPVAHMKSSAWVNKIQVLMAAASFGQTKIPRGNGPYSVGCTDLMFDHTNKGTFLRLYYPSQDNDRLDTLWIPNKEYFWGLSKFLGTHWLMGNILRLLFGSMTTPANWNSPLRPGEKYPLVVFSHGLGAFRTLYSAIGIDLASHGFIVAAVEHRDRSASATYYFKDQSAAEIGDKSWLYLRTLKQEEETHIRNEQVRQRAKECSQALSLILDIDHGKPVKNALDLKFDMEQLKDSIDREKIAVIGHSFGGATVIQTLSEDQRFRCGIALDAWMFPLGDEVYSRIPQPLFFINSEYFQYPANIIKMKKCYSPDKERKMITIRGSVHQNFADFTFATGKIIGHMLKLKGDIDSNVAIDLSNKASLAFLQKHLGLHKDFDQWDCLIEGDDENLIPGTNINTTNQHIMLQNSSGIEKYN

biological target: Platelet-activating factor acetylhydrolase (Homo sapiens) (UniProt Q13093); test: pPAFAH enzyme inhibitors, primary screen, biochemical, fluorescence polarization, human (AID 463082); settings: recombinant pPAFAH, FP-rhodamine probe fluorescence polarization; at 3.39 µM; active compounds read high;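 further: inhibitors block binding of the rhodamine activity-based probe so polarization drops; 0% = enzyme with DMSO and 100% = wells lacking pPAFAH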

SMILES	inhibition
O=[As](O)(c1ccccc1Br)c1ccccc1Br	inactive: -2.18%
COc1ccccc1CNC(=O)COC(=O)C(O)(c1ccccc1)c1ccccc1	inactive: -1.36%
CC(C)(C)C(=O)NC(Sc1ncccn1)C(Cl)(Cl)Cl (configuration not stated)	inactive: -0.61%
Clc1n[nH]nc1-c1nn[nH][15n]1	inactive: -0.06%
CCOP(=O)(NC(=NC(C)c1ccccc1)NC(C)c1ccccc1)OCC (configuration not stated)	inactive: 2.39%
CCC1=CC2Cc3nc4ccc(Cl)cc4c(N)c3C(C1)C2 (configuration not stated)	inactive: 6.58%
O=P1(Nc2ccccn2)COc2ccccc2OC1	inactive: 1.72%
CCOP(=O)(Nc1ccc(C)cn1)OCC	inactive: 0.62%
CN(CCCl)Cc1cc(Cl)c(NC2=NCCN2)c(Cl)c1	inactive: 5.43%
Nc1cccc([As](=O)(O)c2ccccc2)c1	inactive: -2.27%
O=[As](O)(c1cccs1)c1cccs1	inactive: 0.77%
Cc1ccc(OCC(=O)OC2CN3CCC2CC3)cc1 (configuration not stated)	inactive: -2.65%
NS(=O)(=O)c1cccc(NC(=O)COC(=O)C(O)(c2ccccc2)c2ccccc2)c1	inactive: 6%
O=P1(Nc2ccc(Br)cn2)COc2ccccc2OC1	inactive: 4.11%
O=P1(Nc2ncccn2)COc2ccccc2OC1	inactive: 1.82%
CN(C)C1(CNC(=O)c2ccc(S(C)(=O)=O)cc2)CCCCC1	inactive: 0.14%
O=C(/C=C/c1ccccc1)OC1CN2CCC1CC2 (configuration not stated)	inactive: -2.43%
Cc1ccc(C(=O)OC2CN3CCC2CC3)cc1 (configuration not stated)	inactive: 6.4%
CC1CCC(C(C)C)C(OP(=O)(Nc2ccccn2)c2ccccc2)C1 (configuration not stated)	inactive: 3.84%
Cc1nn(-c2ccccc2)c2c1P(=O)(N1CCOCC1)N(C)C(c1ccccc1)=N2 (configuration not stated)	inactive: 4.2%
Cc1cc(SC(NC=O)C(Cl)(Cl)Cl)ncn1 (configuration not stated)	inactive: -3.72%
O=P(Nc1ccccn1)(c1cccc2ccccc12)c1cccc2ccccc12	inactive: 11.1%
CCOC(=O)Nc1cccc([As](=O)(O)O)c1	inactive: 1.74%
Cc1cc(SC(NC(=O)c2ccccc2)C(Cl)(Cl)Cl)nc(C(C)C)n1 (configuration not stated)	inactive: 5.12%

SMILES	inhibition
CCOC(=O)Nc1ccc([As](=O)(O)O)c(O)c1	inactive: 2.04%
CCC(C)N(CC(C)C)C(=S)SC(NC(C)=O)C(Cl)(Cl)Cl (configuration not stated)	inactive: -0.07%
O=C(OC1CN2CCC1CC2)c1cccc([N+](=O)[O-])c1 (configuration not stated)	inactive: 0.03%
CCOC(=O)c1ccc(NC(=O)C(C)(CCl)SC)cc1 (configuration not stated)	inactive: -9.61%
O=C(Nc1ccncc1[N+](=O)[O-])c1ccc([N+](=O)[O-])cc1[N+](=O)[O-]	inactive: 6.34%
O=C(COc1ccccc1)OC1CN2CCC1CC2 (configuration not stated)	inactive: 2.15%
COP1(=S)c2c(C)nn(CCC#N)c2N=C(c2ccc(F)cc2)N1C (configuration not stated)	inactive: -1.2%
COc1ccc(N/C(=N/P(=O)(N2CCOCC2)N2CCOCC2)N2CCOCC2)cc1	inactive: 0.32%
COc1cc(I)ccc1[As](=O)(O)O	inactive: 5.87%
COc1ccc2nc(NP(=O)(c3ccccc3)c3ccccc3)sc2c1	inactive: 1.17%
Cc1c2c(nc3ccccc13)SC(C(Cl)Cl)C2 (configuration not stated)	inactive: 0.44%
Cc1cc(=O)[nH]c(N[N+](=O)[O-])n1	inactive: 0.16%
O=C(OC1CN2CCC1CC2)C12CC3CC(CC(C3)C1)C2 (configuration not stated)	inactive: -1.23%
O=[N+]([O-])c1cc([N+](=O)[O-])c(-c2ccn[nH]2)s1	inactive: 10.6%
CC(C)NC(=O)NP(=O)(Oc1ccccc1)Oc1ccccc1	inactive: -2.53%
CCN(CC)C(=S)SC(NC=O)C(Cl)(Cl)Cl (configuration not stated)	inactive: -1.24%
ClCCSc1nnc(-c2cccnc2)o1	inactive: 4.35%
CC(C)c1ccc(OP(=O)(Nc2ccccn2)Oc2ccccc2F)cc1 (configuration not stated)	inactive: -1.84%
Cc1ccc(OP(=O)(Nc2ccc([N+](=O)[O-])cn2)Oc2ccc(C)cc2)cc1	inactive: -0.49%
Cc1ccc2nc3c(c(C)c2c1)CC(C(Cl)Cl)S3 (configuration not stated)	inactive: 4.7%
COc1cc(C(=O)NCC2(N3CCOCC3)CCCCC2)ccc1OCC(C)C	inactive: 2.29%
C[As](=O)(O)c1cccc(C(=O)O)c1	inactive: 1.34%
O=[As](O)(c1ccc(O)cc1)c1ccccc1O	inactive: -1.33%
